Reference: US20220411487A1 (Regeneron, published 2022)

By UniProt entry, the sequences of proteins in these tests, tags left out. Where a name states a change or a piece, a line headed by the entry shows the natural chain unless it says otherwise.
UniProt Q8IU80: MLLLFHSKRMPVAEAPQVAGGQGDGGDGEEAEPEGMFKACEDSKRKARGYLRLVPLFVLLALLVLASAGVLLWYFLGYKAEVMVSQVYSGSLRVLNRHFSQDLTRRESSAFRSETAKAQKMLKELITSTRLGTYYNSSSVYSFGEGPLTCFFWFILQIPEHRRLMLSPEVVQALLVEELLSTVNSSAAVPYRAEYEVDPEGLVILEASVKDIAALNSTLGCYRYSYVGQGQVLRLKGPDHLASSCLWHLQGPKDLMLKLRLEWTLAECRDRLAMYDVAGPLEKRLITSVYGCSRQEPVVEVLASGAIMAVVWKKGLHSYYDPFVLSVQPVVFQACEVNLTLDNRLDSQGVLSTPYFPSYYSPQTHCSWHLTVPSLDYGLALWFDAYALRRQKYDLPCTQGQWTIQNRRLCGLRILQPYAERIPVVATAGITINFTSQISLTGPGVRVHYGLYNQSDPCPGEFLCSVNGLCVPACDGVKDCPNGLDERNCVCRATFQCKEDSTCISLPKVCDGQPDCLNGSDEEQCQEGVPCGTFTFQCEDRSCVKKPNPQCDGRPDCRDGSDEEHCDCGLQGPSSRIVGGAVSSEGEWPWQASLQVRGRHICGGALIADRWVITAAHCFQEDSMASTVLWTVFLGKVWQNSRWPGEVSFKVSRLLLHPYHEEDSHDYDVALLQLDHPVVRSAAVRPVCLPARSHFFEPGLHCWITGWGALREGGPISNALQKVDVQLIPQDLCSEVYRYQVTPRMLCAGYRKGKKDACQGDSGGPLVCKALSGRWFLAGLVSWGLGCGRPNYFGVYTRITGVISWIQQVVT

Key:
[1] = target: T1, full-length mouse TMPRSS6 with a C-terminal triple myc tag on HEK293.hHJV cells (HEK293.hHJV/3xMyc.mTMPRSS6) (mouse, UniProt Q9DBI0 1-811); assay: cell-based or functional assay
T1 sequence: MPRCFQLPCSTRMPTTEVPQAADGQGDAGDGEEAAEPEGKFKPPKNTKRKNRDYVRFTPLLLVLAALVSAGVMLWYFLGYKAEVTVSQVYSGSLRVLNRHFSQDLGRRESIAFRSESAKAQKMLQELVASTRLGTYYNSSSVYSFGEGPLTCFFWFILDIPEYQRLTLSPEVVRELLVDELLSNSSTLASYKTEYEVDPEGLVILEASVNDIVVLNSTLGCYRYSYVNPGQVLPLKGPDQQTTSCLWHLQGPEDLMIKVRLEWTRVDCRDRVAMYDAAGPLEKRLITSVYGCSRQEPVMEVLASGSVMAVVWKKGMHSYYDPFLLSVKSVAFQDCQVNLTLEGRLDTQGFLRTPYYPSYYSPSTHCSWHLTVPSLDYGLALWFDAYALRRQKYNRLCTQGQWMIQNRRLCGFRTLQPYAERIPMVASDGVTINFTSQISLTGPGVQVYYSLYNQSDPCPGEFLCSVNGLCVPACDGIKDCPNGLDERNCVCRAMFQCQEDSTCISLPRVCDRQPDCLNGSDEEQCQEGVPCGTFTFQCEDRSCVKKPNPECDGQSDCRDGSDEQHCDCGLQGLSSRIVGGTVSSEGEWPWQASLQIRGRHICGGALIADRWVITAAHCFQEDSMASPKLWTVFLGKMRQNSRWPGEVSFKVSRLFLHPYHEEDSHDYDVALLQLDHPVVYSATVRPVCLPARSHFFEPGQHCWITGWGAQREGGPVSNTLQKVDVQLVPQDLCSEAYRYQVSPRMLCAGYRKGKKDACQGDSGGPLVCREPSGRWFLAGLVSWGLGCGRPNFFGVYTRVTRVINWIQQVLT

[2] = target: T2, hTMPRSS6_S762A-MMH (human, UniProt Q8IU80); assay: SPR, mAb captured via anti-hFc, 37 C
T2 construct: also called REGN5330; human TMPRSS6_S762A-MMH
Experimental: (§1) The equilibrium dissociation constant (KD) for TMPRSS6 binding to different TMPRSS6 monoclonal antibodies (mAbs) was determined using a real-time surface plasmon resonance biosensor using a Biacore 4000 instrument. All binding studies were performed in 10 mM HEPES, 150 mM NaCl, 3 mM EDTA, and 0.05% v/v Surfactant Tween-20, pH 7.4 (HBS-ET) running buffer at 25° C. and 37° C. The Biacore CM5 sensor chip surface was first derivatized by amine coupling with a human Fc specific mouse mAb to capture different TMPRSS6 mAbs. […] Different concentrations (100 nM to 3.7 nM, 3-fold serial dilution) of the TMPRSS6 reagent proteins prepared in HBS-EP running buffer were injected over the TMPRSS6 mAb captured surface for 150 seconds at a flow rate of 30 μL/min and their dissociation in HBS-ET running buffer was monitored for 10 minutes. At the end of each cycle, the TMPRSS6 mAb captured surface was regenerated using a 12 second injection of 20 mM phosphoric acid.
(§2) The association rate (kₐ) and dissociation rate (kd) were determined by fitting the real-time binding sensorgrams to a 1:1 binding model with mass transport limitation using Scrubber 2.0 (BioLogic Software) curve-fitting software. Binding dissociation equilibrium constant (KD) and dissociative half-life (t½) were calculated from the kinetic rates as: […]

[3] = target: T3, mfTMPRSS6_S751A-MMH (Macaca fascicularis, UniProt Q8IU80 77-811 (human entry)); assay: SPR, mAb captured via anti-hFc, 37 C
T3 construct: also called REGN5977; Macaca fascicularis TMPRSS6 extracellular domain with a S751A mutation and a C-terminal myc-myc-hexahistidine tag
T3 chain: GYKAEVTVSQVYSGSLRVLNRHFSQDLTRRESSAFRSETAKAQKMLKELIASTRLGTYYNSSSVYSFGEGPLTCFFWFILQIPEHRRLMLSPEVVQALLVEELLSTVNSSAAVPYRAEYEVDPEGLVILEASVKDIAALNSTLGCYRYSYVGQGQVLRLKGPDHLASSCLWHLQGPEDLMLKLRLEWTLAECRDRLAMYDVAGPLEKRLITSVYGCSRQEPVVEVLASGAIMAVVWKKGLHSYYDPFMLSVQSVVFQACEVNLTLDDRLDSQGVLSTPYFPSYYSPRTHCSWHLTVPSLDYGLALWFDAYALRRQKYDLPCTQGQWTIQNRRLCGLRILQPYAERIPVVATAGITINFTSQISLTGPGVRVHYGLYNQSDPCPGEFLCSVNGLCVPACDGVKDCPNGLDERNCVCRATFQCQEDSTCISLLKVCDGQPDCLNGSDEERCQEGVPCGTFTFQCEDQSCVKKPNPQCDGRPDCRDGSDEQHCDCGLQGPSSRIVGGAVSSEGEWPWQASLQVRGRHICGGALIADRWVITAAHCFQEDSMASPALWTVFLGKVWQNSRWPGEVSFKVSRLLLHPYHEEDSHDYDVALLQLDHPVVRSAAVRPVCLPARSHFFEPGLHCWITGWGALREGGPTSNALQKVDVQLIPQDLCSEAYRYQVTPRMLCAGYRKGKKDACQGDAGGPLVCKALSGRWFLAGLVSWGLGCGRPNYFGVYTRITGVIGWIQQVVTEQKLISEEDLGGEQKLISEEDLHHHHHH
Experimental: as §1, §2

Geometric Mean Fluorescence Intensity of cell surface hHJV, 50 nM mAb [1]: 8190
Median Fluorescence Intensity of cell surface hHJV, 50 nM mAb [1]: 7440
100 nM Ag Bound [2]: 164 RU
Kd [2]: 21.2 nM
koff [2]: 0.00126 s⁻¹
kon [2]: 59500 M⁻¹ s⁻¹
t½ [2]: 9 min
100 nM Ag Bound [3]: 145 RU
Kd [3]: 25.7 nM
koff [3]: 0.0034 s⁻¹
kon [3]: 132000 M⁻¹ s⁻¹
t½ [3]: 3.4 min
B1: REGN7973 (antibody, human IgG4 S228P, kappa, V domains shown)
VH: EVQLVESGGGLVKPGGSLRLSCAASGFTFSNAWMSWVRQAPGKGLEWVGRIKSKTDSGTTDYAAPVKGRFTISRDDSKNTLYLQMNSLKTEDTAVYYCTTVDNDFWSGYYNWFDPWGQGTLVTVSS
VL: [gap - about 100 residues]
notes: fully human; human IgG4 Fc with hinge S108P; also called mAb37777
